Screening data as filed in PubChem.
PDI turbidity = PDI (human) enzyme inhibition. P07237. PDI insulin aggregation turbidity, A650, 90 min. inhibition, % at 10 µM. 0.052% of 350,000 active. AID 588391;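 active means mean inhibition across replicates of 30% or more, whatever share of single replicates reach that level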
S100A4 MyoIIA = S100A4-myosin IIA interaction inhibition; S100A4/TAMRA-MyoIIA peptide fluorescence polarization; 0.14% of 360,000 active; inhibition, % at 10.7 µM; P26447;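 active means mean inhibition of at least 70% across replicates, with every replicate also reaching that level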
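Material: S100A4 monomer protein / Buffer or medium: 50 mM HEPES pH 7.2, 10 mM CaCl2, 100 mM KCl / Times: 5 min incubation before reading / Benchmarks: neutral control DMSO, positive control TFP / Reagent: labelled myosin peptide probe, 5 nM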
FGF22 binding = binders of recombinant human FGF22 by thermal shift; Q9HCT0; activity (Tm shift, normalised), % at 9.99 µM; 1.5% of 340,000 active; SYPRO orange fluorescence; percent of sucrose octasulfate shift, DMSO zero;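 active means mean Tm shift, scaled 0 neutral to 100 positive control, at about 1.3% or above, every replicate too, limit read from the data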
SIRT5 block = blocks human SIRT5 desuccinylation of peptide; Q9NXA8; Purified SirT5, succinyl-peptide AMC, trypsin-coupled fluorescence; inhibition, % at 15 µM; 1.1% of 330,000 active; in the data active means inhibition above about 15%
Yeast UUG start = modulators of start codon recognition fidelity in yeast | S. cerevisiae UUG-firefly luciferase reporter, luminescence/redox ratio | activity score, % at 18.7 µM | 350,000 tested, 0.13% active;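 active = replicate mean at a twofold rise or more, about +100% in these data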;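 also: firefly luciferase made from a UUG start codon reports start codon fidelity; reporter light over untreated wells divided by growth signal over untreated wells; some hits fall short of that in this replicate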
ERp5 block = ERp5 (human) disulfide isomerase inhibition | inhibition, % at 9.99 µM | AID 651711 | ERp5 insulin aggregation, absorbance 650 nm, 90 min | Q15084 | 0.05% of 350,000 active;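 active means mean replicate inhibition above about 25%, with every replicate also reaching it, limit read from the data, passing the limit was not always enough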
Each line names hits and unclear results; the compound was inactive in the other large screens. An excerpt weighted towards active compounds, which were near 2.2% of everything screened.

COc1cc2ccccc2cc1C(=O)OCC(=O)NC1CCS(=O)(=O)C1 (stereo not drawn)	FGF22 binding 43 (no result: Yeast UUG start)
CC(CC(=O)OCC(=O)NC1CCS(=O)(=O)C1)c1ccccc1 (stereo not drawn)	FGF22 binding 43 (no result: SIRT5 block)
COc1ccccc1C(=O)Nc1ccc2c(c1)C(=O)N(C)C[C@@H](OC)[C@@H](C)CN[C@@H](C)CO2	none (no result: PDI turbidity)
Cn1cccc1-c1cc(C(=O)N/N=C/C=C/c2ccccc2)[nH]n1	FGF22 binding 1.7 (no result: Yeast UUG start)
O=C(N/N=C/C=C/c1ccccc1)c1cccs1	FGF22 binding 43 (no result: Yeast UUG start)
O=C(C[C@@H]1C=C[C@H](NS(=O)(=O)c2ccc(F)cc2)[C@H](CO)O1)N1CCC(Cc2ccccc2)CC1	none (no result: PDI turbidity)
Cc1nn(C)c(C)c1CCC(=O)O	none
CCn1nc(C)c(CCC(=O)O)c1C	FGF22 binding 43 (no result: Yeast UUG start)
O=C(C[C@H]1CC[C@@H](NC(=O)c2cccnc2)[C@H](CO)O1)NCc1ccncn1	none (no result: PDI turbidity)
OCC#Cc1ncc(C(F)(F)F)cc1Cl	FGF22 binding 43 (no result: Yeast UUG start)
Cc1cc(NC(=O)Cn2ccsc2=N)c([N+](=O)[O-])cc1C	FGF22 binding 43 (no result: Yeast UUG start)
Cc1ccc(NC(=O)Cn2ccsc2=N)c([N+](=O)[O-])c1	none (no result: Yeast UUG start)
C[C@H](CO)N1C[C@H](C)[C@H](CN(C)C)Oc2ccc(NS(=O)(=O)c3ccc(Cl)cc3)cc2CC1=O	none (no result: PDI turbidity)
O=C(CCN1CCCCC1)NNC(=S)NC(=O)c1ccc(Br)cc1	FGF22 binding 43 (no result: Yeast UUG start)
CC(C)NC(=O)N(C)C[C@@H]1Oc2ncc(C#CC3CCCCC3)cc2C(=O)N([C@H](C)CO)C[C@@H]1C	none (no result: PDI turbidity, S100A4 MyoIIA, FGF22 binding, SIRT5 block, ERp5 block)
Cc1cc(C)nc(NC(=O)c2ccc(Cl)cc2Cl)n1	none
Cc1ccnc(NC(=O)c2ccc(Cl)cc2Cl)n1	FGF22 binding 43 (no result: PDI turbidity, Yeast UUG start)
Cc1cccc(NC(=O)CNC(=O)COc2cc(F)ccc2[N+](=O)[O-])c1C	FGF22 binding 43 (no result: Yeast UUG start)
Cc1cccc(NC(=O)CNC(=O)COc2ccc(C(=O)c3ccc(F)cc3)cc2)c1C	none (no result: S100A4 MyoIIA, FGF22 binding, SIRT5 block, Yeast UUG start, ERp5 block)
Cn1cnnc1Sc1cc(N2CCN(S(=O)(=O)c3ccccc3)CC2)ccc1[N+](=O)[O-]	FGF22 binding 45 (no result: Yeast UUG start)
CCS(=O)(=O)c1ccc(Sc2nncn2C)c([N+](=O)[O-])c1	none (no result: Yeast UUG start)
CNC[C@@H]1Oc2c(NS(=O)(=O)c3c(C)noc3C)cccc2C(=O)N([C@H](C)CO)C[C@H]1C	none (no result: PDI turbidity, Yeast UUG start)
CN(C)CC1CC/C(=C\c2ccc(O)cc2)C1=O (stereo not drawn)	PDI turbidity 87 (no result: Yeast UUG start)
CC1CCC/C(=C\c2ccc(O)cc2)C1=O (stereo not drawn)	none
C#CCN1CCc2onc(-c3ccc(Br)cc3)c2C1=O	FGF22 binding 43 (no result: PDI turbidity, SIRT5 block, Yeast UUG start)
CC1(C(=O)NCCCN2CCOCC2)Oc2cccnc2NC1=O (stereo not drawn)	FGF22 binding 43
COc1ccccc1CNC(=O)C1(C)Oc2cccnc2NC1=O (stereo not drawn)	none (no result: Yeast UUG start)
Cc1ccc(S(=O)(=O)NCCCCCC(=O)Nc2c(C)n(C)n(-c3ccccc3)c2=O)cc1	FGF22 binding 43
Cc1ccc(C(=O)Nc2c(C)n(C)n(-c3ccccc3)c2=O)cc1	FGF22 binding 44 (no result: Yeast UUG start)
Cc1ccc(S(=O)(=O)NC(=O)Nc2c(C)n(C)n(-c3ccccc3)c2=O)cc1	none
C[C@@H]1CN([C@@H](C)CO)C(=O)c2cc(NC(=O)Nc3ccc4c(c3)OCO4)ccc2O[C@H]1CN(C)Cc1ccc(Cl)c(Cl)c1	none (no result: PDI turbidity)
COc1ccc(-c2[nH]ncc2CN2CCC(C(=O)N3CCOCC3)CC2)c(F)c1	none
O=C(C1CCN(Cc2cn[nH]c2-c2ccc(F)cc2F)CC1)N1CCOCC1	FGF22 binding 44 (no result: Yeast UUG start)
CN(C)C(=O)[C@@H]1[C@@H](CO)[C@@H]2Cn3c(ccc(C4=CCCC4)c3=O)[C@H]1N2C(=O)Nc1ccccc1	none (no result: PDI turbidity, Yeast UUG start)
O=c1[nH][nH]c(-c2ccccc2)c1C=Nc1ccc(C(F)(F)F)cc1	FGF22 binding 44
C[C@@H]1CN([C@@H](C)CO)C(=O)c2cc(-c3ccccc3)cnc2O[C@H]1CN(C)C(=O)c1ccccn1	none (no result: PDI turbidity)
CN(C)C(=O)c1cccc(-c2ccc(C3[C@@H]4CN(S(=O)(=O)Cc5ccccc5)C[C@H]3N4)cc2)c1 (stereo partly drawn)	none (no result: PDI turbidity, FGF22 binding, Yeast UUG start)
Cc1cccc(OCC(=O)N2CCN(S(C)(=O)=O)CC2)c1	FGF22 binding 43 (no result: Yeast UUG start)
Cc1ccc(OCC(=O)N2CCN(S(C)(=O)=O)CC2)cc1	none (no result: Yeast UUG start)
COc1ccc2c3c(n(C)c2c1)[C@H](CO)N(C(=O)CN(C)C)CC31CCN(C(=O)CN(C)C)CC1	none (no result: PDI turbidity, Yeast UUG start)
O=C(NCCNC(=O)c1ccc(-c2ccc(Cl)c(Cl)c2)o1)c1cnccn1	none
O=C(NCCNC(=O)c1ccc(-c2cc(Cl)ccc2Cl)o1)c1cnccn1	FGF22 binding 44 (no result: SIRT5 block)
C[C@@H]1CN([C@H](C)CO)C(=O)c2cc(NC(=O)c3ccncc3)ccc2O[C@@H](C)CCCCO[C@H]1CN(C)C(=O)Nc1ccccc1	none (no result: PDI turbidity, FGF22 binding)
OC(CNCc1ccccc1)COc1ccccc1 (stereo not drawn)	SIRT5 block 24
O=C(c1ccccc1)c1ccc(OCC(O)CNCc2ccc(Cl)cc2)cc1 (stereo not drawn)	none
Cc1n[nH]c(=O)c2c(NC(=O)CSc3nnnn3-c3ccc(O)cc3)oc(C)c12	PDI turbidity 43
O=C(CN1CCOCC1)NCC[C@@H]1CC[C@H](NC(=O)Nc2ccc(F)cc2)[C@@H](CO)O1	none (no result: PDI turbidity)
COCC(=O)N(C[C@@H]1N[C@H](CO)[C@H]1c1ccc(C2=CCCC2)cc1)C(C)C	none (no result: PDI turbidity, S100A4 MyoIIA, FGF22 binding, SIRT5 block, ERp5 block)
O=C(Nc1ccc(F)cc1)N1CC(=O)N2[C@H](CO)[C@@H](c3ccc(Br)cc3)[C@@H]2C1	none (no result: PDI turbidity, FGF22 binding, Yeast UUG start)
CC(=O)O[C@H]1CC[C@@]2(C)[C@@H](CC[C@H]3[C@@H]4CC[C@H](C(C)O)[C@@]4(C)CC(=O)[C@@H]32)C1 (stereo partly drawn)	SIRT5 block 23
CC(=O)OC1CCC2(C)C(CCC3C2CC(=O)C2(C)C3CC(C3CCCC3=O)C2C(C)=O)C1 (stereo not drawn)	SIRT5 block 15
CC(=O)OC1CCC2(C)C(CCC3C2CC(=NO)C2(C)C(C(C)OC(C)=O)CCC32)C1 (stereo not drawn)	none (no result: Yeast UUG start)
C[C@@H]1CN([C@H](C)CO)C(=O)c2cc(NC(=O)Nc3ccc(F)cc3)ccc2O[C@@H]1CN(C)Cc1ccccc1	none (no result: PDI turbidity)
CC(C)NC(=O)NCC[C@@H]1CC[C@@H](NS(=O)(=O)c2ccccc2)[C@@H](CO)O1	none (no result: PDI turbidity, FGF22 binding, Yeast UUG start)
C/C(N)=C(/C#N)C(=O)CSc1nnc(Nc2ccccc2)s1	SIRT5 block 18 (no result: Yeast UUG start)
O=C(N[C@H]1CC[C@@H](CCNC(=O)c2cnccn2)O[C@H]1CO)c1ccc2c(c1)OCO2	none (no result: PDI turbidity, Yeast UUG start)
COc1ccc(CNC(=O)COc2ccc(S(=O)(=O)N3CCOCC3)cc2)cc1	none
O=C(COc1ccc(S(=O)(=O)N2CCOCC2)cc1)NCCc1ccc(Cl)cc1	FGF22 binding 43 (no result: SIRT5 block)
